# Activity calls are given as the source filed them. No cut-off for these calls is given here.
# The chains behind the UniProt entries cited, without tags or fusion partners.
# UniProt P41143, whole entry, looked up: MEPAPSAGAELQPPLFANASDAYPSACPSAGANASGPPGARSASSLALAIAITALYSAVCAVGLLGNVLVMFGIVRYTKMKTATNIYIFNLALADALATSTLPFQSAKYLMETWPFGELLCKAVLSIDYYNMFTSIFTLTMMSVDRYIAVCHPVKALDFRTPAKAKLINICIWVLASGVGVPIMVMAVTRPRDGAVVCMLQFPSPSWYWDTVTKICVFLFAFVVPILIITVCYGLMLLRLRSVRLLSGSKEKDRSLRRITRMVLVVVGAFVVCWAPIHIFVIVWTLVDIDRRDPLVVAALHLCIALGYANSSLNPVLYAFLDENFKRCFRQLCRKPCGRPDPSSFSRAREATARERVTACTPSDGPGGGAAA
# Target: Delta-type opioid receptor (Homo sapiens) (UniProt P41143)
# Assay: Displacement of [3H]Cl-DPDPE from human delta opioid receptor transfected in CHO cell membranes after 60 mins
smiles,measurement,value
CN(C(=O)Cc1ccccc1)[C@H]1CC[C@@]2(CCCO2)C[C@@H]1N1CCCC1,inhibition,inactive

# — ChEMBL document CHEMBL3259735, “Designing bifunctional NOP receptor-mu opioid receptor ligands from NOP-receptor selective scaffolds. Part II” (Bioorg Med Chem, 2014)
